According to PMC7782793, “Hydroxamic acid-modified peptide microarrays for profiling isozyme-selective interactions and inhibition of histone deacetylases” (Nature Communications, 2021):

Molecular target: T1, HDAC8 (Homo sapiens, UniProt Q9BY41)
T1 sequence (Q9BY41 1-377): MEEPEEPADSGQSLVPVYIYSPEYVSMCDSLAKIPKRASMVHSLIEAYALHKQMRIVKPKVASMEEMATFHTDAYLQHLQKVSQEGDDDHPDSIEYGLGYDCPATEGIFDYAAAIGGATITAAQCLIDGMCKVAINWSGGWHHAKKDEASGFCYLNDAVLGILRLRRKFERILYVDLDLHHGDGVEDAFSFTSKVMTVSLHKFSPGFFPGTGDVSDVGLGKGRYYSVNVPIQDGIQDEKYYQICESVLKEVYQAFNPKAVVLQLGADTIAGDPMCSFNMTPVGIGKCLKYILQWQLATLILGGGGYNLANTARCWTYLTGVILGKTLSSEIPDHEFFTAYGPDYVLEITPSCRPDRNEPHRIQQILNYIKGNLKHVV
Test: HDAC inhibition assay (fluorogenic, Ac-Leu-Gly-Lys(Tfa)-AMC)
Format: biochemical

With `O=C(CCCCCCC(=O)Nc1ccccc1)NO` [SAHA, reference compound] the Ki was 650 ± 4 nM.
